## scFv variants of Ab-14 (heavy chain) against a SARS-CoV-2 spike peptide

Binding partner: SARS-CoV-2 spike HR2 peptide, sequence PDVDLGDISGINAS.

Parent scFv Ab-14: VH joined to VL by a (GGGGS)3 linker. Changes lie in the heavy chain CDRs alone.
VH: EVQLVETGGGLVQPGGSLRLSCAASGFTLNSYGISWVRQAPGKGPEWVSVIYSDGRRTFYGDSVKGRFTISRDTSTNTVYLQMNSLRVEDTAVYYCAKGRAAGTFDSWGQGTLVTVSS
VL: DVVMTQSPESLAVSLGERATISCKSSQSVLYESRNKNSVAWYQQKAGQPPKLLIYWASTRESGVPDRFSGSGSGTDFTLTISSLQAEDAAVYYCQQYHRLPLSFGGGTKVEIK

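Phage display of a naive human antibody library on the peptide gave the parent. The variants were designed computationally from a first round of random CDR variants and then made and measured. Their group label is 14H_En_Gen (En: ensemble of fine-tuned language models; Gen: genetic algorithm). The scFvs were displayed on barcoded MATa yeast, the peptide on MATalpha yeast. Binding brings cells together so that they mate, and sequencing counts the barcode pairs among the diploids. Each replicate has its own calibration line, from reference interactions of the BCL2 family. The assay was run in six technical replicates.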

The parent's heavy chain CDRs are GFTLNSYGIS, VIYSDGRRTFYGDSVK, GRAAGTFDS; each variant's own CDRs replace them letter for letter.
The read-out is the apparent dissociation constant on a log10 scale (nM): the lower, the stronger.
A mean of the replicates is given; it leaves out those without a signal.
An entry "ND" has no value in the source: the pair was not observed among the diploids in that replicate. This suggests poor binding but is not conclusive.
In the paper, a design with two or fewer of six values counts as a poor binder.
A sequence measured in both rounds can read differently, since the two assays cover different ranges.
Three control strains display no target. For all heavy chain designs, 1% of the pairings with them gave a signal, with a median of 2.08 and one signal in twenty below 0.84, so weak values seen in few replicates may be background. Also given: how often the same scFv was detected with the empty control strains, with their mean in brackets.

| CDR-H1 | CDR-H2 | CDR-H3 | log10 Kd (nM) by replicate | log10 Kd (nM), mean | empty controls |
|---|---|---|---|---|---|
| GFDLDEYGIS | VIYADGKRTVYADSVK | GNQAGTFDV | 0.39 -0.36 0.41 -0.01 0.19 0.12 | 0.12 | 0 of 18 |
| GFDLDEYGIS | VIYADGKRTAYSDSVK | GQNAGTFDV | -0.08 -0.48 -0.82 -0.93 -0.54 -0.61 | -0.58 | 0 of 18 |
| GFDLDEYGIS | VIYADGMRTAYADSVK | GANAGTFDM | 0.25 -0.16 -0.21 -0.35 -0.14 0.13 | -0.08 | 3 of 18 (2.45) |
| GFDLNEYGIS | VIYADGMRTAYADKVK | GNTAGTFDL | -0.28 -0.17 -0.07 -0.31 -0.33 0.04 | -0.19 | 1 of 18 (2.04) |
| GFDLDEYGIS | VIYADGKRTAYADSVK | GNQAGTFDL | ND ND ND ND ND ND | ND | 0 of 18 |
| GFDLNEYGIS | VIYADGMRKAYADSVK | GNVAGTFDT | -0.43 -0.54 -0.61 -0.83 -0.51 -0.37 | -0.55 | 0 of 18 |
| GFDLEEYGIS | VIYADGMRTAYSDSVK | GNVAGTFDT | -0.14 -0.27 -0.36 -0.08 -0.25 -0.03 | -0.19 | 0 of 18 |
| GFDLDEYGIS | VIYADGMRKAYADSVK | GETAGTFDV | -0.42 -0.63 -0.45 -0.37 -0.45 -0.29 | -0.43 | 0 of 18 |
| GFDLNEYGIS | VIYADGVRTAYSDNVK | GEVAGTFDV | -0.04 -0.20 -0.39 -0.24 -0.08 0.22 | -0.12 | 0 of 18 |
| GFDLNEYGIS | VIYADGVRTAYADSVK | GNTAGTFDV | -0.22 -0.37 -0.65 -0.75 -0.41 -0.28 | -0.45 | 0 of 18 |
| GFDLDEYGIS | VIYADGMRKAYADSVK | GENAGTFDI | -0.04 -0.13 -0.47 -0.43 1.47 0.10 | 0.08 | 0 of 18 |
| GFDLDEYGIS | VIYADGVRTAYADSVK | GENAGTFDV | -0.13 -0.35 -0.30 -0.32 -0.51 -0.20 | -0.30 | 1 of 18 (1.85) |
| GFDLNEYGIS | VIYADGQRKAYADDVK | GNQAGTFDV | -0.21 -0.50 -0.90 -0.74 -0.75 -0.43 | -0.59 | 0 of 18 |
| GFDLDEYGIS | VIYADGMRTAYADNVK | GNQAGTFDL | -0.37 -0.42 -0.41 -0.70 -0.38 -0.34 | -0.44 | 0 of 18 |
| GFDLNEYGIS | VIYADGVRTAYSDKVK | GNVAGTFDL | -0.30 -0.36 -0.63 -0.86 -0.81 -0.28 | -0.54 | 0 of 18 |
| GFDLDEYGIS | VIYADGVRTAYSDSVK | GNNAGTFDL | 0.81 -0.24 -0.52 -0.60 0.23 0.02 | -0.05 | 0 of 18 |
| GFDLDEYGIS | VIYADGQRTAYTDSVK | GNQAGTFDV | 0.33 -0.29 -0.21 -0.08 -0.19 -0.12 | -0.09 | 1 of 18 (3.09) |
| GFDLEEYGIS | VIYADGQRTAYADSVK | GNNAGTFDV | 0.35 0.02 -0.11 -0.10 0.00 0.01 | 0.03 | 1 of 18 (2.28) |
| GFDLNEYGIS | VIYADGKRTAYADSVK | GGTAGTFDV | 0.16 0.51 0.18 0.90 0.40 0.19 | 0.39 | 0 of 18 |
| GFDLEEYGIS | VIYADGQRTAYADSVK | GNVAGTFDI | -0.59 -0.51 -0.50 -0.97 -0.53 -0.27 | -0.56 | 0 of 18 |
| GFDLNEYGIS | VIYADGSRTVYADSVK | GENAGTFDI | 1.00 0.47 0.86 0.04 0.40 0.97 | 0.62 | 0 of 18 |
| GFDLNEYGIS | VIYADGMRTAYADKVK | GENAGTFDT | -0.14 -0.34 -0.57 -0.53 -0.75 -0.39 | -0.45 | 0 of 18 |
| GFDLDEYGIS | VIYADGSRTAYSDSVK | GNVAGTFDI | -0.28 0.05 -0.47 -0.64 0.20 -0.49 | -0.27 | 1 of 18 (1.88) |
| GFDLNEYGIS | VIYADGRRTFYSDSVK | GENAGTFDV | -0.42 -0.28 -0.59 -0.42 -0.54 -0.40 | -0.44 | 0 of 18 |
| GFDLNEYGIS | VIYADGMRTVYADSVK | GNEAGTFDV | 0.19 -0.02 -0.15 -0.21 -0.18 0.27 | -0.02 | 0 of 18 |
| GFDLDEYGIS | VIYADGVRTAYVDSVK | GENAGTFDV | -0.15 -0.06 -0.49 -0.33 -0.63 -0.37 | -0.34 | 1 of 18 (2.64) |
| GFDLNEYGIS | VIYADGQRTAYANSVK | GENAGTFDV | 0.75 0.10 1.00 -0.28 0.39 0.58 | 0.42 | 1 of 18 (0.92) |
| GFDLNEYGIS | VIYADGKRSAYADSVK | GNVAGTFDQ | -0.01 0.60 -0.87 0.70 -0.62 0.42 | 0.04 | 0 of 18 |
| GFDLNEYGIS | VIYADGVRTAYADDVK | GSNAGTFDI | 0.13 1.02 0.16 0.58 0.69 0.65 | 0.54 | 0 of 18 |
| GFDLNEYGIS | VIYADGKRTAYSDSVK | GEVAGTFDV | -0.61 -0.87 -0.80 -1.12 -1.09 -0.73 | -0.87 | 1 of 18 (2.03) |
| GFDLDEYGIS | VIYADGVRTAYADKVK | GNVAGTFDV | -0.50 -0.26 -0.83 -0.74 -0.80 -0.45 | -0.60 | 1 of 18 (1.28) |
| GFDLNEYGIS | VIYADGQRTFYADSVK | GNVAGTFDL | 0.01 -0.17 -0.25 -0.47 -0.21 -0.13 | -0.20 | 0 of 18 |

The closing 5 entries, repeated:

| CDR-H1 | CDR-H2 | CDR-H3 | log10 Kd (nM) by replicate | log10 Kd (nM), mean | empty controls |
|---|---|---|---|---|---|
| GFDLNEYGIS | VIYADGKRSAYADSVK | GNVAGTFDQ | -0.01 0.60 -0.87 0.70 -0.62 0.42 | 0.04 | 0 of 18 |
| GFDLNEYGIS | VIYADGVRTAYADDVK | GSNAGTFDI | 0.13 1.02 0.16 0.58 0.69 0.65 | 0.54 | 0 of 18 |
| GFDLNEYGIS | VIYADGKRTAYSDSVK | GEVAGTFDV | -0.61 -0.87 -0.80 -1.12 -1.09 -0.73 | -0.87 | 1 of 18 (2.03) |
| GFDLDEYGIS | VIYADGVRTAYADKVK | GNVAGTFDV | -0.50 -0.26 -0.83 -0.74 -0.80 -0.45 | -0.60 | 1 of 18 (1.28) |
| GFDLNEYGIS | VIYADGQRTFYADSVK | GNVAGTFDL | 0.01 -0.17 -0.25 -0.47 -0.21 -0.13 | -0.20 | 0 of 18 |

The measurements come from Li et al. 2023 (doi:10.1038/s41467-023-39022-2) through the FLAb antibody collection.